These are literature values, as cited in patent USRE48842E1, “Pyrimido-pyrrolo-oxazine-dione compound inhibitors of the cystic fibrosis transmembrane conductance regulator protein and uses therefor” (The Regents of the University of California, priority 2011, dated 2021).

Sequences of proteins named here, by UniProt entry; tags and fusion partners are left off.
UniProt P13569, whole entry, species assumed: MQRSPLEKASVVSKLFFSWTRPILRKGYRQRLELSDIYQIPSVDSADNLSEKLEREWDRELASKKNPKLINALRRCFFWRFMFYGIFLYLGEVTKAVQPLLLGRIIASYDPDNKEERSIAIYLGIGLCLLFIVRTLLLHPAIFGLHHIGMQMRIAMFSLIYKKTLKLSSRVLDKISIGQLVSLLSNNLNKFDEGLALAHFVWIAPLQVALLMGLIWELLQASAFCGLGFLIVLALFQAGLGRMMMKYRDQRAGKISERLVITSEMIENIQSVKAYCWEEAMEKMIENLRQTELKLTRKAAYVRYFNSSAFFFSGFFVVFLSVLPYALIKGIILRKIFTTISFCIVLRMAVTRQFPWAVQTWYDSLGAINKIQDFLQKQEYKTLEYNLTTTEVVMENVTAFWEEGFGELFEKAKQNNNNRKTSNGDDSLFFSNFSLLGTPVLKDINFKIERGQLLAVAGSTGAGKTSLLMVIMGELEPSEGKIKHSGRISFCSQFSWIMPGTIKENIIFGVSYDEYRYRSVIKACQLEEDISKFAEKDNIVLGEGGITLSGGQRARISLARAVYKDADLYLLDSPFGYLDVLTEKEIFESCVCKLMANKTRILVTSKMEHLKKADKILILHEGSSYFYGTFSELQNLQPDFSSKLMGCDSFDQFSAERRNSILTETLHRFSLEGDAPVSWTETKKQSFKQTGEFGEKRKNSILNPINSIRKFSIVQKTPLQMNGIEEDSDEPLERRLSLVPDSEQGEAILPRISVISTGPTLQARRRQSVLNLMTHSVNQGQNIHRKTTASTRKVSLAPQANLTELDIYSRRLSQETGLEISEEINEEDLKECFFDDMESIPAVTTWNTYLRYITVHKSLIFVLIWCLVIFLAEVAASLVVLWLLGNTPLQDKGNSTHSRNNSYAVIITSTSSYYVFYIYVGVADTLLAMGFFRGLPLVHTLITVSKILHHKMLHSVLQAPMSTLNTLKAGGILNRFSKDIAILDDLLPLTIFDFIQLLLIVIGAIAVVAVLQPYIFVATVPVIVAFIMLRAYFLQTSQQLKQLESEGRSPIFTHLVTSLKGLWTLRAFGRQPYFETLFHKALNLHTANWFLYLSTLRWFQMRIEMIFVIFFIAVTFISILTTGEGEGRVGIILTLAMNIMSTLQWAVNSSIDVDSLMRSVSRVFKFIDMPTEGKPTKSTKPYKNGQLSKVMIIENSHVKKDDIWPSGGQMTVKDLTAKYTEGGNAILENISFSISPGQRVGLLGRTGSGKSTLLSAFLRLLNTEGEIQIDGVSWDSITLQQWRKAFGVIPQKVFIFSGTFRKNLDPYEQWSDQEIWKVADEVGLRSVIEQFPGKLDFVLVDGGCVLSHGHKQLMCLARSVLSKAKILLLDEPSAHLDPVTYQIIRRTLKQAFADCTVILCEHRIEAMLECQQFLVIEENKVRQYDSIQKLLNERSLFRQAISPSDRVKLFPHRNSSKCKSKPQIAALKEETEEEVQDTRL

Broadly, the IC50 is the concentration that gives 50% inhibition.

This series deals with CFTR (Homo sapiens, UniProt P13569). To be noted: literature values; read-out: IC50 for CFTR inhibition; cited from earlier work.

CFTRinh-172: the IC50 is 300 to 3000 nM.
